# Data reported in patent publication US8092020B2 (priority 2002, dated 2012).
# Read-outs that look alike come from different tables or passages of the source.
# Assays:
# [1] = tested on: Sprague-Dawley rat; assay: Miosis and pupillary light reflex after I.P. injection of parathion
# [2] = tested on: Sprague-Dawley rat; details: in vivo, ip
# [3] = tested on: Sprague-Dawley rat; details: rats, intraperitoneal (I.P.); cited from earlier work
# [4] = tested on: Sprague-Dawley rat
smiles,measurement,setting,value
CCOP(=S)(OCC)Oc1ccc([N+](=O)[O-])cc1,maximal pupillary contraction observed among all parathion exposed animals,"[1]; 3 μg/kg, light intensity 1.7 cd/m^2 (FIG. 2)",93.1%
same,EC50 for loss of pupillary light reflex,[1]; I.P.,953 ± 69 µg/kg
same,extrapolated EC50 for miosis (percent pupillary contraction),"[1]; I.P., 15 minutes post-injection, light intensity 1.7 cd/m^2 (FIG. 2)",147 ± 36 ng/kg
same,LD50,[2],2.47 mg/kg
same,literature LD50,[3],2 mg/kg
same,maximal pupillary contraction observed among all parathion exposed animals,"[4]; 3 μg/kg, light intensity 1.7 cd/m^2 (FIG. 3)",93.1%
same,first dose group in which all animals lacked the pupillary light reflex,[4]; direct ocular exposure,0.01 mg/kg
same,EC50 for loss of the light reflex,"[4]; direct ocular exposure, 3 minutes application",2.8 ± 0.9 µg/kg
